# Assay results published in patent US12344626B2, “Pharmaceutical compounds and therapeutic methods” (RUTGERS, THE STATE UNIVERSITY OF NEW JERSEY, priority 2019, dated 2025).
# Conditions: 44 targets listed in the 3rd table; COX1, COX2 and 5-HT2B positive
substance,measurement,value
"Zn[(E)-2-(1-(4-(2-methoxyethoxy)pyridin-2-yl)ethylidene)-N,N-dimethylhydrazine-1-carbothioamide]2 [ZN-8]",Positive hits in the CEREP-44 Safety Screen,The only positive hits were
